In US20100112617A1, “Evaluating RTK Target Drugs” (Apocell, Inc, priority 2007, published 2010):

Target: T1, EGFR (Homo sapiens, UniProt P00533)
T1 construct: host or cells: HT-29 colon cancer cells
Assay: pEGFR and tEGFR levels in EGF-stimulated HT-29 colon cancer cells by laser scanning cytometry
Format: cell-based
Details: HT-29 cells, 0% FCS, 10 mM, EGF 100 ng/ml for 5 min
Procedure: We sought to test RTK response to RTKI's and thus measured both phospho-RTK and total RTK using a known RTKI challenge reagent. AEE788 (NOVARTIS®) is an oral multiple-receptor tyrosine kinase inhibitor of EGFR, human epidermal growth factor receptor 2 (HER-2), and vascular endothelial growth factor receptor (VEGFR). Thus, we measured EGFR response to AEE788 using antibody quantitation of the two parameters. HT-29 colon cancer cells were treated with increasing doses of AEE788, (0, 4, 20, 100, and 1000 nM) for 4 hours in serum-free media followed by EGF stimulation at 100 ng/ml for 5 minutes. Cells were then fixed and stained with anti-phospho-EGFR (P-EGFR-Y1173) antibody followed by a secondary antibody conjugated with a fluorescent probe. The mean fluorescence index (MFI) of pEGFR was quantified by laser scanning cytometry (LSC) […] and the results are shown in Table 2.

Compound: COc1cc2ncnc(Nc3cccc(Cl)c3)c2cc1OC [AG1478]
- pEGFR fold change in level: 0.60 fold
- pEGFR/tEGFR fold change in level: 0.29 fold
- tEGFR fold change in level: 2.12 fold
